Measured values reported in patent US20250170216A1 (Protagonist Therapeutics, Inc., priority 2022, published 2025).
Like-named read-outs stand apart in the source and are kept apart here.

Legend:
ferroportin [1] = biological target: T1, ferroportin (Homo sapiens, UniProt Q9NP59); assay: FPN activity assay: internalization of ferroportin-GFP in stably transfected HEK293 cells; format: cell-based; design: expressed in transfected cells; details: read-out: IC50: FPN
T1 sequence (Q9NP59 1-571): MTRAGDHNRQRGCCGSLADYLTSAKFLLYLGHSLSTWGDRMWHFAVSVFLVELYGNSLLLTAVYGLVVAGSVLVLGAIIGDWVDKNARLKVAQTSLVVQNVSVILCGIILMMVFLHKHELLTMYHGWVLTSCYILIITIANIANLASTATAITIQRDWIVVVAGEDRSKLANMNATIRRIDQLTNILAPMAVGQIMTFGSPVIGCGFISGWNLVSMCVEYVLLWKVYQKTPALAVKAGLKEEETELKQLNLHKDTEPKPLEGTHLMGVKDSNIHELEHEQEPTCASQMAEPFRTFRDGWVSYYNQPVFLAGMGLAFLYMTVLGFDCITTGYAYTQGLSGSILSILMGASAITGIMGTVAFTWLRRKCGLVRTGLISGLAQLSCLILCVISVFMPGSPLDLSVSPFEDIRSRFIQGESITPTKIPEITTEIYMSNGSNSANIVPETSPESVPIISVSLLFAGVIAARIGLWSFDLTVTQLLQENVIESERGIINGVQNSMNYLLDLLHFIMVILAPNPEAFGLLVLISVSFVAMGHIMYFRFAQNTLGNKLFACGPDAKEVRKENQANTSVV
Description: Peptide analogues were tested in vitro for induction of internalization of the human ferroportin protein. Following internalization, the ferroporin protein is degraded. The assay used (FPN activity assay) measures a decrease in fluorescence of the receptor. The cDNA encoding the human ferroportin (SLC40A1) was cloned from a cDNA clone from Origene (NM_014585). The DNA encoding the ferroportin was amplified by PCR using primers also encoding terminal restriction sites for subcloning, but without the termination codon. The ferroportin receptor was subcloned into a mammalian GFP expression vector containing a neomycin (G418) resistance marker in such that the reading frame of the ferroportin was fused in frame with the GFP protein. The fidelity of the DNA encoding the protein was confirmed by DNA sequencing. HEK293 cells were used for transfection of the ferroportin-GFP receptor expression plasmid. The cells were grown according to standard protocol in growth medium and transfected with the plasmids using Lipofectamine (manufacturer's protocol, Invitrogen). The cells stably expressing ferroportin-GFP were selected using G418 in the growth medium (in that only cells that have taken up and incorporated the cDNA expression plasmid survive) and sorted several times on a Cytomation MoFloTM cell sorter to obtain the GFP-positive cells (488 nm/530 nm). The cells were propagated and frozen in aliquots. […] Compound was added to desired final concentration for at least 18 hours in the incubator. Following incubation, the remaining GFP-fluorescence was determined either by whole cell GFP fluorescence (Envision plate reader, 485/535 filter pair), or by Beckman Coulter QuantaTM flow cytometer (express as Geometric mean of fluorescence intensity at 485 nm/525 nm). Compound was added to desired final concentration for at least 18 hours but no more than 24 hours in the incubator. In certain experiments, reference compounds included native Hepcidin, Mini-Hepcidin, and RT-Mini-Hepcidin, which is an analog of mini-hepcidin. The “RI” in RI-Mini-Hepcidin refers to Retro Inverse. A retro inverse peptide is a peptide with a reversed sequence in all D amino acids. An example is that […] becomes […]. The EC50 of these reference compounds for ferroportin internalization/degradation was determined according to the FPN activity assay described above. These peptides served as control standards.

ferroportin [2] = biological target: T1, ferroportin; assay: T47D cell-based ferroportin internalization assay in presence of 0.5% mouse serum albumin (MSA); design: a human breast carcinoma adherent cell line which endogenously expresses ferroportin; host or cells: T47D
Description: The potency of the peptides in causing ferroportin internalization was evaluated in a T47D cell-based assay. […] In this internalization assay, the potency of the test peptides was evaluated in the presence of serum albumin, which is the main protein component in the blood. T47D cells were maintained in RPMI media (containing required amount of fetal bovine serum) and regularly sub-cultured. In preparation for the assay, the cells were seeded in 96-well plates at a density of 80-100 k cells per well in 100 ul volume and allowed to rest overnight. On the next day, test peptides were first prepared in dilution series (10-point series, starting concentration of ˜5 μM, typically 3-4×fold dilution steps), all with 0.5% mouse serum albumin (MSA purified from mouse serum; Sigma, A3139). The test peptide dilution series were allowed to incubate at room temperature for 30 min. Then the media was aspirated from the 96-well cell plate and test peptide dilution series were added. After 1 hr incubation, the media with test peptides was aspirated out and AF647-conjugated detection peptide was added at fixed concentration of 200 nM. The AF647-conjugated detection peptide was previously verified to bind to ferroportin and cause its internalization. The cells were washed again after a 2 hr incubation in preparation for flow cytometry analysis. The Median Fluorescence Intensity (MFI) of the AF647-positive population was measured (after removing dead cells and non-singlets from the analysis). The MFI values were used to generate a dose-response curve and obtain IC50 potencies for the test peptides. The IC50 potencies were calculated by using 4-parameter non-linear fitting function in Graphpad Prism, and the results are provided in Table 1C.

[3] = Table 1C, FPN internalization assay
[4] = Table 1C, T47D internalization, 0.5% mouse serum albumin, read-out: IC50: T47D MSA
[5] = Table 1D, FPN internalization assay
[6] = Table 1D, T47D internalization, 0.5% mouse serum albumin, read-out: IC50: T47D MSA

IC50 (ferroportin [2]; [4]) | Compound | also measured
101 to 500 nM | CC[C@H](C)[C@@H]1NC(=O)[C@@H](NC(=O)[C@@H]2CCCN2C(=O)[C@@H](NC(=O)[C@H](Cc2c[nH]cn2)NC(=O)[C@@H](NC(=O)[C@H](CCC(=O)O)NC(=O)CC(C)C)[C@@H](C)O)C(c2ccccc2)c2ccccc2)CSSC(C)(C)[C@@H](C(N)=O)NC(=O)[C@@H](CCCCNC(=O)CCOCCOCCOCCOCCOCCOCCOCCOCCOCCOCCOCCOC)NC(=O)C[C@H](Cc2ccccc2)NC(=O)[C@H](CCCCNC(=O)CCOCCOCCOCCOCCOCCOCCOCCOCCOCCOCCOCCOCCNC(=O)CCCCCCCCCCCCCCCCC(=O)O)NC1=O [compound 63] | DC50 (ferroportin [1]; [3]): 30 to 100 nM
11 to 100 nM | CC[C@H](C)[C@@H]1NC(=O)[C@@H](NC(=O)[C@@H]2CCCN2C(=O)[C@@H](NC(=O)[C@H](Cc2c[nH]cn2)NC(=O)[C@@H](NC(=O)[C@H](CCC(=O)O)NC(=O)CC(C)C)[C@@H](C)O)C(c2ccccc2)c2ccccc2)CSSC[C@@H](C(N)=O)NC(=O)[C@H](CCCN2CCOCC2)NC(=O)C[C@H](Cc2ccccc2)NC(=O)[C@H](CCCCNC(=O)COCCOCCNC(=O)COCCOCCNC(=O)CCCCCNC(=O)CCCCCCCCCCCCCCCCC(=O)O)NC1=O [compound 71] | DC50 (ferroportin [1]; [3]): 1 to 30 nM
– | CCCCCCCCCCCCCCCC(=O)NC(CCC(=O)O)CCC(=O)NCC[N+](C)(C)CC(=O)NCCCC[C@H]1C(=O)N[C@@H](Cc2ccccc2)CC(=O)N[C@H](CCCCN)C(=O)N[C@H](C(N)=O)CSSC[C@H](NC(=O)[C@@H]2CCCN2C(=O)[C@@H](NC(=O)[C@H](Cc2c[nH]cn2)NC(=O)[C@@H](NC(=O)[C@H](CCC(=O)O)NC(=O)CC(C)C)[C@@H](C)O)C(c2ccccc2)c2ccccc2)C(=O)N[C@@H]([C@@H](C)CC)C(=O)N1C (stereo partly shown) [compound 91] | DC50 (ferroportin [1]; [5]): 1 to 30 nM; IC50 (ferroportin [2]; [6]): 1 to 10 nM
– | CC[C@H](C)[C@@H]1NC(=O)[C@@H](NC(=O)[C@@H]2CCCN2C(=O)[C@@H](NC(=O)[C@H](Cc2c[nH]cn2)NC(=O)[C@@H](NC(=O)[C@H](CCC(=O)O)NC(=O)c2ccccc2)[C@@H](C)O)C(c2ccccc2)c2ccccc2)CSSC[C@@H](C(N)=O)NC(=O)[C@@H](CCCCNC(=O)CCOCCOCCOCCOCCOCCOCCOCCOCCOCCOCCOCCOC)NC(=O)C[C@H](Cc2ccccc2)NC(=O)[C@H](CCCCNC(=O)COCCOCCNC(=O)COCCOCCNC(=O)CCCCCNC(=O)CCCCCCCCCCCCCCCCC(=O)O)NC1=O [compound 50] | DC50 (ferroportin [1]): 1 to 30 nM; IC50 (ferroportin [2]): 11 to 100 nM
> 500 nM | CC[C@H](C)[C@@H]1NC(=O)[C@@H](NC(=O)[C@@H]2CCCN2C(=O)[C@@H](NC(=O)[C@H](Cc2c[nH]cn2)NC(=O)[C@H](CCO)NC(=O)[C@H](CCC(=O)O)NC(=O)CC(C)C)C(c2ccccc2)c2ccccc2)CSSC[C@@H](C(N)=O)NC(=O)[C@@H](CCCCNC(=O)CCOCCOCCOCCOCCOCCOCCOCCOCCOCCOCCOCCOC)NC(=O)C[C@H](Cc2ccccc2)NC(=O)[C@H](CCCCNC(=O)COCCOCCNC(=O)COCCOCCNC(=O)CCCCCNC(=O)CCCCCCCCCCCCCCCCC(=O)O)NC1=O [compound 69] | –
– | CC[C@H](C)[C@@H]1NC(=O)[C@@H](NC(=O)[C@@H]2CCCN2C(=O)[C@@H](NC(=O)[C@H](Cc2c[nH]cn2)NC(=O)[C@@H](NC(=O)[C@H](CCC(=O)O)NC(=O)CC(C)C)[C@@H](C)O)C(c2ccccc2)c2ccccc2)CSSC[C@@H](C(N)=O)NC(=O)[C@@H](CCCCN)NC(=O)[C@H](CCCCNC(=O)[C@H](CCN)NC(=O)CCCCCCCCCCC(=O)O)NC(=O)C[C@H](Cc2ccccc2)NC(=O)[C@@H](CCCCN)NC1=O [compound 96] | DC50 (ferroportin [1]; [5]): 1 to 30 nM; IC50 (ferroportin [2]; [6]): 11 to 100 nM
101 to 500 nM | CC[C@H](C)[C@@H]1NC(=O)[C@@H](NC(=O)[C@@H]2CCCN2C(=O)[C@@H](NC(=O)[C@H](Cc2c[nH]cn2)NC(=O)[C@@H]2[C@H](O)CCN2C(=O)[C@H](CCC(=O)O)NC(=O)CC(C)C)C(c2ccccc2)c2ccccc2)CSSC[C@@H](C(N)=O)NC(=O)[C@@H](CCCCNC(=O)CCOCCOCCOCCOCCOCCOCCOCCOCCOCCOCCOCCOC)NC(=O)C[C@H](Cc2ccccc2)NC(=O)[C@H](CCCCNC(=O)COCCOCCNC(=O)COCCOCCNC(=O)CCCCCNC(=O)CCCCCCCCCCCCCCCCC(=O)O)NC1=O [compound 70] | –
11 to 100 nM | CC[C@H](C)[C@@H]1NC(=O)[C@@H](NC(=O)[C@@H]2CCCN2C(=O)[C@@H](NC(=O)[C@H](Cc2c[nH]cn2)NC(=O)[C@@H]2[C@H](O)CCN2C(=O)[C@H](CCC(=O)OC)NC(=O)CC(C)C)C(c2ccccc2)c2ccccc2)CSSC[C@@H](C(N)=O)NC(=O)[C@@H](CCCCN)NC(=O)C[C@H](Cc2ccccc2)NC(=O)[C@H](CCCCNC(=O)COCCOCCNC(=O)COCCOCCNC(=O)[C@H](CN)NC(=O)CCCCCCCCCCCCCCCCC(=O)O)NC1=O [compound 66] | –
11 to 100 nM | CC[C@H](C)[C@@H]1NC(=O)[C@@H](NC(=O)[C@@H]2CCCN2C(=O)[C@@H](NC(=O)[C@H](Cc2c[nH]cn2)NC(=O)[C@@H](NC(=O)[C@H](CCC(=O)OC)NC(=O)CC(C)C)[C@@H](C)O)C(c2ccccc2)c2ccccc2)CSSC[C@@H](C(N)=O)NC(=O)[C@@H](CCCCN)NC(=O)[C@H](Cc2ccc(-c3nnn[nH]3)cc2)NC(=O)[C@H](CCCCNC(=O)COCCOCCNC(=O)COCCOCCNC(=O)[C@H](CN)NC(=O)CCCCCCCCCCCCCCCCC(=O)O)NC1=O [compound 64] | –
11 to 100 nM | CC[C@H](C)[C@@H]1NC(=O)[C@@H](NC(=O)[C@@H]2CCCN2C(=O)[C@@H](NC(=O)[C@H](Cc2c[nH]cn2)NC(=O)[C@@H]2[C@H](O)CCN2C(=O)[C@H](CCC(=O)OC)NC(=O)CC(C)C)C(c2ccccc2)c2ccccc2)CSSC[C@@H](C(N)=O)NC(=O)[C@@H](CCCCN)NC(=O)C[C@H](Cc2ccccc2)NC(=O)[C@H](CCCCNC(=O)COCCOCCNC(=O)COCCOCCNC(=O)CCCCCNC(=O)CCCCCCCCCCCCCCCCC(=O)O)NC1=O [compound 65] | –
11 to 100 nM | CC[C@H](C)[C@@H]1NC(=O)[C@@H](NC(=O)[C@@H]2CCCN2C(=O)[C@@H](NC(=O)[C@H](Cc2cn(C)cn2)NC(=O)[C@@H](NC(=O)[C@H](CCC(=O)O)NC(=O)CC(C)C)[C@@H](C)O)C(c2ccccc2)c2ccccc2)CSSC[C@@H](C(N)=O)NC(=O)[C@@H](CCCCNC(=O)CCOCCOCCOCCOCCOCCOCCOCCOCCOCCOCCOCCOC)NC(=O)C[C@H](Cc2ccccc2)NC(=O)[C@H](CCCCNC(=O)COCCOCCNC(=O)COCCOCCNC(=O)CCCCCNC(=O)CCCCCCCCCCCCCCCCC(=O)O)NC1=O [compound 67] | –
